From paper PMC12613146
Where “and” joins values, the source holds several entries; their conditions need not be identical. Equal values may be shown once.

Tests used:
[1] = target: ectodomain of the epidermal growth factor receptor, EGFR25-645 (human); assay: BLI; biotinylated ligand (50 nM, 5 min) on streptavidin sensors, DDM proteomicelles of the membrane protein in the wells (six two-fold dilutions); 20 mM Tris-HCl, 300 mM KCl, 0.2% (w/v) DDM, 1 mg/ml BSA, pH 7.5; 22 °C; global fits, KD = koff/kon
[2] = target: ectodomain of the epidermal growth factor receptor (EGFR) (human) (UniProt P00533); assay: BLI; biotinylated protein ligand (50 nM, 5 min) on streptavidin sensors; detergent-solubilised membrane protein (proteomicelles) in the wells, six 2-fold dilutions; 300 mM KCl, 20 mM Tris-HCl, 0.2% (w/v) DDM, 1 mg/mL BSA, pH 7.5; 22 °C; KD = koff/kon

koff [1] | kon [1] | Kd [2] [nM] | koff [2] [s⁻¹] | Substance
8.5e-05 s⁻¹ and 9.5e-05 s⁻¹ and 9e-05 s⁻¹ | 7900 M⁻¹ s⁻¹ and 7700 M⁻¹ s⁻¹ and 7800 M⁻¹ s⁻¹ | – | – | ZEGFR(GGS)2tFhuA (designed binder)
– | – | 16 | 9e-05 | Z_(EGFR)-tFhuA (designed binder)
